The data set can be described thus: Radiochemical purity / percent stability of aged radiopharmaceutical solutions by radio-analytical HPLC. The following applies: 8 vol. % EtOH:phosphate.

As to `Cc1cn([C@H]2C[C@H]([18F])[C@@H](CO)O2)c(=O)[nH]c1=O` [[F-18]FLT], the “% stability 3.25 hr” value ([F-18]FLT 118.7 mCi/mL, maleic acid + Air headspace) is 99.8%. The “% stability 3.5 hr” value ([F-18]FLT 197.1 mCi/mL, maleic acid (0.1 mg/mL) + O2) came out at 99.2%.

(Values after patent US9539349B2, “Formulation, apparatus and method for stabilizing radiopharmaceuticals” (Siemens Medical Solutions USA, Inc., priority 2010, dated 2017).)
